Laboratory results as given in EP3428178B1, “PEPTIDE FOR PREVENTING OR TREATING INFLAMMATORY DISEASES AND USE THEREOF” (dated 2026).

Tests used:
[1] = system: collagen-induced arthritis (CIA) mouse model; assay: Arthritis progression index in collagen-induced arthritis (CIA) mouse model
Method: A collagen-induced arthritis (CIA) mouse model was prepared as follows, as an autoimmune disease-based arthritis model with characteristics similar to human rheumatoid arthritis.
(§1) First, a bovine type II collagen (Chondrex Corporation, USA) and a Freund's complete adjuvant (Chondrex Corporation, USA) were mixed at a ratio of 1:1 and emulsified, and then 50 µl of the emulsified collagen solution was injected intradermally into the tail of a 6-week-old DBA/1J mouse to induce primary immunization. […]
In order to investigate the development of arthritis progression according to the peptide treatment of the present invention, the deepening degree of arthritis with time was measured by evaluating an arthritis progression index. Two observers who were unaware of the specific experimental conditions evaluated progression of arthritis three times a week. In this case, the arthritis progression index was evaluated by 0 to 4 scores per leg according to an arthritis progression evaluation standard by Rossoliniec and the like in Table 2 below to be represented by a total of 0 to 16 scores (a sum of four legs), and thereafter, two observers calculated an average value of the evaluated results to digitize the severity of arthritis. […]

[2] = system: joint region of collagen-induced arthritis mouse model; assay: Histological analysis (H&E staining) of hind leg joint tissue of CIA mouse; conditions: FIG. 6
Method: First, a bovine type II collagen (Chondrex Corporation, USA) and a Freund's complete adjuvant (Chondrex Corporation, USA) were mixed at a ratio of 1:1 and emulsified, and then 50 µl of the emulsified collagen solution was injected intradermally into the tail of a 6-week-old DBA/1J mouse to induce primary immunization. At two weeks after the primary immunization, the bovine type II collagen and the Freund's complete adjuvant were mixed at a ratio of 1:1 and emulsified, and then 50 µl of the emulsified collagen solution was injected intradermally into the tail of the mouse again to induce secondary immunization (boosting). After the secondary immunization, the peptide of the present invention (the PSP dimer (1 µmole) or the PSP trimer (1 µmole)) was administered intraperitoneally three times a week from the next day, and as a comparative experimental group, a PSP monomer-treated group and as a control (Vehicle control), a PBS-treated group were used, respectively. The preparation process of the collagen-induced arthritis mouse model and the administration time of the peptide were schematically illustrated in FIG. 1.
In order to confirm a healing effect of the cartilage damage of the joint region according to the peptide treatment of the present invention, the deepening degree of arthritis in Example 2-2 was evaluated and then, a histological analysis was performed. […]

IL-18 = IL-18 expression in joint tissue by immunohistochemistry (IHC); conditions: FIG. 7
Method: as §1, with “immunization. At two weeks after the primary immunization, the bovine type II collagen and the Freund's complete adjuvant were mixed at a ratio of 1:1 and emulsified, and then 50 µl of the emulsified collagen solution was injected intradermally into the tail of the mouse again to induce secondary immunization (boosting).” for “immunization.”
Rheumatoid arthritis is one of chronic inflammatory diseases and it has been reported to increase the concentration of inflammatory cytokine such as interleukin-18 (IL-18) even in the joint tissues as well as the blood of a patient with rheumatoid arthritis. […] The expression of IL-18 was measured by using immunohistochemistry (IHC), and to this end, a paraffin ingredient was removed from the paraffin tissue fragment and then rehydrated to create an environment in which the antibodies may be stained. […]

O=C(N[C@@H](CO)C(=O)N1CCC[C@H]1C(=O)N1CCC[C@H]1C(=O)N[C@@H](CO)C(=O)N1CCC[C@H]1C(=O)O)[C@@H]1CCCN1
arthritis progression index compared with methotrexate ([1]; methotrexate 1 mg/kg, Tables 6 and 7): approximate arthritis progression index to the group treated with methotrexate | swelling and redness around the ankle joint ([1]; visual check, compared with the control, FIG. 5): remarkably mitigated | immune cell infiltration, pannus formation, cartilage destruction, and bone erosion of the joint region [2]: greatly reduced | expression of IL-18 (IL-18): largely decreased to the normal mouse level
